From PubChem BioAssay (NCI)
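All cell lines were grown in 96-well plates and treated with compound for 48 hours. GI50 is the concentration that inhibits growth by half. TGI is the concentration that stops growth completely.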

Assays:
Test in all cases: inhibition of tumour cell growth, NCI panel, 48 h
SF-539 CNS = system: SF-539 CNS
M14 melanoma = system: M14 melanoma
BT-549 breast = system: BT-549 breast
DU-145 prostate = system: DU-145 prostate
NCI-H23 lung = system: NCI-H23 lung
RPMI-8226 leukemia = system: RPMI-8226 leukemia
HT29 colon = system: HT29 colon
UACC-257 melanoma = system: UACC-257 melanoma
786-0 renal = system: 786-0 renal
SR leukemia = system: SR leukemia
MCF7 breast = system: MCF7 breast
SK-MEL-2 melanoma = system: SK-MEL-2 melanoma
PC-3 prostate = system: PC-3 prostate
MDA-MB-231 breast = system: MDA-MB-231 breast
OVCAR-8 ovarian = system: OVCAR-8 ovarian
OVCAR-3 ovarian = system: OVCAR-3 ovarian
CAKI-1 renal = system: CAKI-1 renal
SNB-19 CNS = system: SNB-19 CNS
NCI-H460 lung = system: NCI-H460 lung
RXF 393 renal = system: RXF 393 renal
NCI-H226 lung = system: NCI-H226 lung
SNB-75 CNS = system: SNB-75 CNS
UO-31 renal = system: UO-31 renal
U251 CNS = system: U251 CNS
KM12 colon = system: KM12 colon
NCI/ADR-RES ovarian = system: NCI/ADR-RES ovarian
SF-268 CNS = system: SF-268 CNS
MALME-3M melanoma = system: MALME-3M melanoma
CCRF-CEM leukemia = system: CCRF-CEM leukemia
IGROV1 ovarian = system: IGROV1 ovarian
TK-10 renal = system: TK-10 renal
SK-OV-3 ovarian = system: SK-OV-3 ovarian
MDA-MB-435 = system: MDA-MB-435
COLO 205 colon = system: COLO 205 colon
OVCAR-4 ovarian = system: OVCAR-4 ovarian
A498 renal = system: A498 renal
HS 578T breast = system: HS 578T breast
MOLT-4 leukemia = system: MOLT-4 leukemia
T-47D breast = system: T-47D breast
SN12C renal = system: SN12C renal
SF-295 CNS = system: SF-295 CNS
HOP-92 NSCLC = system: HOP-92 NSCLC
HCT-116 colon = system: HCT-116 colon
EKVX NSCLC = system: EKVX NSCLC
SK-MEL-28 melanoma = system: SK-MEL-28 melanoma
LOX IMVI melanoma = system: LOX IMVI melanoma
HCT-15 colon = system: HCT-15 colon
K-562 leukemia = system: K-562 leukemia
NCI-H322M lung = system: NCI-H322M lung
HL-60(TB) leukemia = system: HL-60(TB) leukemia
UACC-62 melanoma = system: UACC-62 melanoma
HOP-62 NSCLC = system: HOP-62 NSCLC
OVCAR-5 ovarian = system: OVCAR-5 ovarian
A549 NSCLC = system: A549 NSCLC
ACHN renal = system: ACHN renal
SW-620 colon = system: SW-620 colon
SK-MEL-5 melanoma = system: SK-MEL-5 melanoma

O=[N+]([O-])c1cccc(Oc2ccc([N+](=O)[O-])cc2[N+](=O)[O-])c1
GI50 (SF-539 CNS): 3.98 µM
TGI (SF-539 CNS): 18.6 µM
GI50 (M14 melanoma): 1.25 µM
TGI (M14 melanoma): 14 µM
GI50 (BT-549 breast): 5.2 µM
TGI (BT-549 breast): 17.4 µM
GI50 (DU-145 prostate): 2.86 µM
TGI (DU-145 prostate): 8.9 µM
GI50 (NCI-H23 lung): 3.54 µM
TGI (NCI-H23 lung): 17.7 µM
GI50 (RPMI-8226 leukemia): 0.643 µM
TGI (RPMI-8226 leukemia): 12.3 µM
GI50 (HT29 colon): 0.352 µM
TGI (HT29 colon): 28.3 µM
GI50 (UACC-257 melanoma): 1.61 µM
TGI (UACC-257 melanoma): 7.1 µM
GI50 (786-0 renal): 3.46 µM
TGI (786-0 renal): 15.9 µM
GI50 (SR leukemia): 0.609 µM
TGI (SR leukemia): 29.7 µM
GI50 (MCF7 breast): 0.739 µM
TGI (MCF7 breast): 21.9 µM
GI50 (SK-MEL-2 melanoma): 3.58 µM
TGI (SK-MEL-2 melanoma): 14.1 µM
GI50 (PC-3 prostate): 4.49 µM
TGI (PC-3 prostate): 19.6 µM
GI50 (MDA-MB-231 breast): 5.2 µM
TGI (MDA-MB-231 breast): 20.7 µM
GI50 (OVCAR-8 ovarian): 1.85 µM
TGI (OVCAR-8 ovarian): 13.6 µM
GI50 (OVCAR-3 ovarian): 6.37 µM
TGI (OVCAR-3 ovarian): 19.3 µM
GI50 (CAKI-1 renal): 1.58 µM
TGI (CAKI-1 renal): 7.2 µM
GI50 (SNB-19 CNS): 9.92 µM
TGI (SNB-19 CNS): 24 µM
GI50 (NCI-H460 lung): 3.39 µM
TGI (NCI-H460 lung): 15.1 µM
GI50 (RXF 393 renal): 3.76 µM
TGI (RXF 393 renal): 13.9 µM
GI50 (NCI-H226 lung): 4.56 µM
TGI (NCI-H226 lung): 30.7 µM
GI50 (SNB-75 CNS): 3.07 µM
TGI (SNB-75 CNS): 18.1 µM
GI50 (UO-31 renal): 3.35 µM
TGI (UO-31 renal): 14.5 µM
GI50 (U251 CNS): 1.61 µM
TGI (U251 CNS): 12.8 µM
GI50 (KM12 colon): 3.36 µM
TGI (KM12 colon): 13.9 µM
GI50 (NCI/ADR-RES ovarian): 0.974 µM
TGI (NCI/ADR-RES ovarian): 17 µM
GI50 (SF-268 CNS): 4 µM
TGI (SF-268 CNS): 17.6 µM
GI50 (MALME-3M melanoma): 4.48 µM
TGI (MALME-3M melanoma): 22 µM
GI50 (CCRF-CEM leukemia): 0.463 µM
TGI (CCRF-CEM leukemia): > 100 µM
GI50 (IGROV1 ovarian): 1.58 µM
TGI (IGROV1 ovarian): 6.65 µM
GI50 (TK-10 renal): 3.29 µM
TGI (TK-10 renal): 14.1 µM
GI50 (SK-OV-3 ovarian): 4.87 µM
TGI (SK-OV-3 ovarian): 26 µM
GI50 (MDA-MB-435): 1.76 µM
TGI (MDA-MB-435): 9.44 µM
GI50 (COLO 205 colon): 3.16 µM
TGI (COLO 205 colon): 10 µM
GI50 (OVCAR-4 ovarian): 0.805 µM
TGI (OVCAR-4 ovarian): 18.8 µM
GI50 (A498 renal): 10.6 µM
TGI (A498 renal): 24.3 µM
GI50 (HS 578T breast): 7.23 µM
TGI (HS 578T breast): 74.7 µM
GI50 (MOLT-4 leukemia): 2.35 µM
TGI (MOLT-4 leukemia): > 100 µM
GI50 (T-47D breast): 3.04 µM
TGI (T-47D breast): 17.1 µM
GI50 (SN12C renal): 2.8 µM
TGI (SN12C renal): 18.6 µM
GI50 (SF-295 CNS): 3.47 µM
TGI (SF-295 CNS): 13 µM
GI50 (HOP-92 NSCLC): 1.91 µM
TGI (HOP-92 NSCLC): 18.7 µM
GI50 (HCT-116 colon): 0.317 µM
TGI (HCT-116 colon): 14.4 µM
GI50 (EKVX NSCLC): 9.84 µM
TGI (EKVX NSCLC): 24.1 µM
GI50 (SK-MEL-28 melanoma): 6.92 µM
TGI (SK-MEL-28 melanoma): 19.9 µM
GI50 (LOX IMVI melanoma): 0.358 µM
TGI (LOX IMVI melanoma): 12.7 µM
GI50 (HCT-15 colon): 0.6 µM
TGI (HCT-15 colon): 22.2 µM
GI50 (K-562 leukemia): 0.33 µM
TGI (K-562 leukemia): > 100 µM
GI50 (NCI-H322M lung): 3.1 µM
TGI (NCI-H322M lung): 8.18 µM
GI50 (HL-60(TB) leukemia): 0.514 µM
TGI (HL-60(TB) leukemia): 12.4 µM
GI50 (UACC-62 melanoma): 4.82 µM
TGI (UACC-62 melanoma): 21.9 µM
GI50 (HOP-62 NSCLC): 4.04 µM
TGI (HOP-62 NSCLC): 15.5 µM
GI50 (OVCAR-5 ovarian): 4.95 µM
TGI (OVCAR-5 ovarian): 20.8 µM
GI50 (A549 NSCLC): 3.46 µM
TGI (A549 NSCLC): 12.8 µM
GI50 (ACHN renal): 4.97 µM
TGI (ACHN renal): 19.2 µM
GI50 (SW-620 colon): 0.382 µM
TGI (SW-620 colon): 27.3 µM
GI50 (SK-MEL-5 melanoma): 3.06 µM
TGI (SK-MEL-5 melanoma): 10.8 µM
